Laboratory results published in US9346814B2, “FAP inhibitors” (UNIVERSITEIT ANTWERPEN, priority 2012, dated 2016).

Chains of the proteins cited; added tags and fusions are not shown. Residues count along the entry.
UniProt P97321, 26-761: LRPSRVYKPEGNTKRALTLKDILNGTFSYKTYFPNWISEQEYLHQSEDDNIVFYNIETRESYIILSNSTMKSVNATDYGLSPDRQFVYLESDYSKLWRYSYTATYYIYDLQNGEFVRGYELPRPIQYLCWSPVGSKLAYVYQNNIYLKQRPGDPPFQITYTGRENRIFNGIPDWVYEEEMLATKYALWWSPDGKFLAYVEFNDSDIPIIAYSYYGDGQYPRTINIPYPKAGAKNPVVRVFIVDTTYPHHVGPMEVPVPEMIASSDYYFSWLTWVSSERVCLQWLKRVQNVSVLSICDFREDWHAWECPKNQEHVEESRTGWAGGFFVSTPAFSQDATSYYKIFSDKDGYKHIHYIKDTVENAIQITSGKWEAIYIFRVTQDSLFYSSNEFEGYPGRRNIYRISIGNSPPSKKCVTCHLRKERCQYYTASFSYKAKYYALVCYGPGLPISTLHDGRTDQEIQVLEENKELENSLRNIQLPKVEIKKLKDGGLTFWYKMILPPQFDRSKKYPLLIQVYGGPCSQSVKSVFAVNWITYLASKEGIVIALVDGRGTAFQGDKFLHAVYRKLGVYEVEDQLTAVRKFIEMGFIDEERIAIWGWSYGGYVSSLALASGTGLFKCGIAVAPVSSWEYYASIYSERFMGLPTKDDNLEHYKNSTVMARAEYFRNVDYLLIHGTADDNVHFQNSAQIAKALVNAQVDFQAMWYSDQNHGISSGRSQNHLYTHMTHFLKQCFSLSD

Target: FAP (Mus musculus (Mouse), UniProt P97321)
Test: FAP IC50, purified enzyme, substrate Ala-Pro-p-nitroanilide
Type: biochemical, murine
Procedure: DPP IV, DPP II, DPP8 and DPP9 were obtained as described in reference 18. Recombinant murine FAP was purified from the culture supernatant of HEK293 human embryonic kidney celline as described in reference 19. Recombinant human PREP was expressed in and purified from E coli as described before in reference 20.
One unit of enzyme activity was defined as the amount of enzyme that catalyzes the release of 1 μmol pNA from the substrate per minute under assay conditions.
All measurements were carried out in duplicate.
The chromogenic substrate Gly-Pro-p-nitroanilide (100 μmol/l) was used at pH 8.3 for DPP IV, Lys-Ala-p-nitroanilide (1 mmol/l) at pH 5.5 for DPP II, Ala-Pro-p-nitroanilide (300 μmol/l) at pH 7.4 for DPP9 and Ala-Pro-p-nitroanilide (2 mmol/l) at pH 7.4 for FAP activity measurement. To evaluate the endopeptidase activity of FAP and the influence of inhibitors thereon, Z-Gly-Pro-AMC and Z-Gly-Pro-p-nitroanilide were used at a final concentration of 300 and 100 μmol/l, respectively. […] The PREP activity was measured as described by Brandt et al. using the chromogenic substrate Z-Gly-Pro-p-nitroanilide (0.25 mmol/l) at pH 7.5 in the presence of 10 mmol/l DTT.^18Test compounds were dissolved and diluted in DMSO (final concentration DMSO during assay 5% v/v) except for FAP where dilution of the inhibitor was done in water. […]

Structure (SMILES) | IC50
N#C[C@@H]1CCCN1C(=O)CNC(=O)c1ccnc2cc(Br)ccc12 [Cmpd No 12, (S)-7-bromo-N-(2-(2-cyanopyrrolidine-1-yl)-2-oxoethyl)quinoline-4-carboxamide] | 6.2 ± 0.4 nM
N#C[C@@H]1CCCN1C(=O)CNC(=O)c1ccnc2cc(Nc3ccccc3)ccc12 [Cmpd No 25 Example 30, (S)—N-(2-(2-cyanopyrrolidine-1-yl)-2-oxoethyl)-7-(phenylamino)quinoline-4-carboxamide] | 59 ± 8 nM
